Here are results for 57 compounds from PubChem BioAssay AID743398 (Broad Institute, 2014).

Only a part is listed here, and it is no random draw. Some structures show a salt or complex split into parts, the way the source records it. Active and inactive are the calls of the source. Rule as the data show it: active = activation above about 30% (passing the limit was not always enough); inconclusive = no clear call, values can overlap the other calls.

A short description of this assay: activation of beta-catenin signaling reporter – cell-based, plate reader, single point, primary screen (AID 743398).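 Also: 0% = neutral control wells and 100% = positive control wells.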 Conditions: Wnt/beta-catenin reporter cell assay, activator, at 9.35 µM, active compounds read high.
For the compound `Cc1ccccc1NP(C)(=O)Nc1ccccc1C`, the activation was inactive: -0.891%.

`CP(=O)(Nc1ccc(SC(F)(F)F)cc1)Oc1ccc(F)cc1` (configuration not stated): the activation is inactive: -0.704%.

On to `CCOP(=O)(CC)OCC`, for which the activation was inactive: 1.77%. The result for `CCOP(C)(=S)SCC(=O)NC(C)(CC)C(=O)O` (configuration not stated) reads inactive: -1.01%; that for `Cc1cc(-c2cccc3ccccc23)c(C)cn1.O=[N+]([O-])c1cc([N+](=O)[O-])c(O)c([N+](=O)[O-])c1`, inactive: 2.02%; that for `O=[N+]([O-])c1cc([N+](=O)[O-])c(NCC2CCS(=O)(=O)C2)c([N+](=O)[O-])c1` (configuration not stated), inactive: 21.9%. For `O=[N+]([O-])c1ccc(OP2(=O)COCCO2)cc1` (configuration not stated), the activation was inactive: -1.37%. For `Cc1c(C(c2ccc3c(c2)OCO3)c2c(C)n(C)n(-c3ccccc3)c2=O)c(=O)n(-c2ccccc2)n1C.O=[N+]([O-])c1cc([N+](=O)[O-])c(O)c([N+](=O)[O-])c1`, the activation is inactive: 1.88%.

Consider `COc1ccc(OP(C)(=O)Nc2cccc(Br)c2)cc1` (configuration not stated), for which the activation is inactive: -4.2%.

For `COc1ccc(NP(C)(=O)Oc2ccccc2OC)cc1` (configuration not stated), the activation was inactive: -0.362%. The result for `Cc1c([N+](=O)[O-])cc([N+](=O)[O-])c(Br)c1[N+](=O)[O-]` reads inactive: -2%.

In the case of `CCCCCOc1ccc(NP(C)(=O)Oc2ccc(Cl)cc2Cl)cc1` (configuration not stated), the activation was inactive: 0.347%. Turning to `O=[N+]([O-])c1cc([N+](=O)[O-])c(OC2CCCCC2O)c([N+](=O)[O-])c1` (configuration not stated), the activation is inactive: 0.363%.

As for `CP(=O)(Nc1ccccc1)Oc1ccc(F)cc1` (configuration not stated), the activation was inactive: -6.6%. For `COc1ccc(OP(C)(=O)Nc2ccc(SC(F)(F)F)cc2)cc1` (configuration not stated), the activation was inactive: -1.15%. The result for `CCOC(=O)c1ccc(NP(C)(=O)Oc2ccc(F)cc2)cc1` (configuration not stated) reads inactive: -2.21%; that for `O=C(OCCN1CCN(CCOCc2ccccc2)CC1)C(O)(c1ccccc1)c1ccccc1`, inactive: -1.72%; that for `O=C(OC1CN2CCC1CC2)c1ccc([N+](=O)[O-])cc1` (configuration not stated), inactive: -0.157%. The result for `COc1ccc2c(c1O)-c1c(O)c(OC)cc3c1[C@H](C2)[N+](C)(C)CC3.O=[N+]([O-])c1cc([N+](=O)[O-])c([O-])c([N+](=O)[O-])c1[O-]` reads inactive: 12.1%; that for `O=[N+]([O-])c1cc([N+](=O)[O-])c(Nc2ccc(Cl)cc2)c([N+](=O)[O-])c1`, inactive: -5.94%; that for `CC(C)c1ccc(OP(C)(=O)Nc2ccc(SC(F)(F)F)cc2)cc1` (configuration not stated), inactive: -2.52%.

For the compound `CP(=O)(Nc1ccccc1F)Oc1ccccc1` (configuration not stated), the activation is inactive: -1.27%. The result for `Cc1c(NP(C)(=O)Oc2ccc(C(C)C)cc2)c(=O)n(-c2ccccc2)n1C` (configuration not stated) reads inactive: -1.62%; that for `O=[N+]([O-])c1cc([N+](=O)[O-])c(Nc2ccccn2)c([N+](=O)[O-])c1`, inactive: -0.635%; that for `CCc1ccc(OP(C)(=O)O)cc1`, inactive: -3.55%. The result for `COc1ccccc1OP(C)(=O)Nc1ccc(C)cc1C` (configuration not stated) reads inactive: -4.86%.

Take `COc1ccccc1OP(C)(=O)Nc1ccc(Br)cc1` (configuration not stated): the activation was inactive: -1.28%.

Regarding `CN(C)CCOC(=O)C(O)(c1ccccc1)C1CCCC1` (configuration not stated), the activation is inactive: -4.97%. In the case of `COc1ccc(OP(C)(=O)Nc2ccccn2)cc1` (configuration not stated), the activation is inactive: -5.73%. The result for `CCCCCCCCCCCCCCCC1C[N+](C)(C)CCOP(C)(=O)O1` (configuration not stated) reads inactive: -2.41%; that for `CP(=O)(Nc1ccc(Cl)cc1Cl)Oc1ccccc1` (configuration not stated), inactive: -0.952%; that for `CP(=O)(OCCOc1ccccc1)OCCOc1ccccc1`, inactive: -0.875%. On to `O=C1C(O)=C([N+](=O)[O-])C(=O)C(O)=C1[N+](=O)[O-]`, for which the activation is inactive: -7.93%. The result for `Cc1cc(C)cc(OP(C)(=O)Nc2cccc(C(F)(F)F)c2)c1` (configuration not stated) reads inactive: -1.03%; that for `COc1ccc(OP(C)(=O)Nc2ccccc2Br)cc1` (configuration not stated), inactive: 1.75%. With `Nc1ccc2c(ccc3cccnc32)n1.O=[N+]([O-])c1cc([N+](=O)[O-])c(O)c([N+](=O)[O-])c1`, the activation is inactive: 26.2%. The result for `CP(=O)(OC12CC3CC(CC(C3)C1)C2)OC12CC3CC(CC(C3)C1)C2` reads inactive: -0.178%; that for `CCOC(=O)c1ccc(NP(C)(=O)Oc2ccc(Cl)cc2)cc1` (configuration not stated), inactive: -0.886%. The result for `COc1ccccc1OP(C)(=O)Nc1ccccc1Br` (configuration not stated) reads inactive: 0.326%.

`CN(C)C(=O)c1c([N+](=O)[O-])cc([N+](=O)[O-])cc1[N+](=O)[O-]`: the activation was inactive: -0.239%. Consider `CCN(CC)CC(O)COC(=O)C(O)(c1ccccc1)C1CCCCC1` (configuration not stated), for which the activation is inactive: 18.4%. On to `COc1ccc(OP(C)(=O)Nc2ccc(Br)cc2)cc1` (configuration not stated), for which the activation is inactive: -4.4%. For `CCc1ccc(OP(C)(=O)Nc2cccnc2)cc1` (configuration not stated), the activation is inactive: -0.646%. In the case of `COc1ccccc1OP(C)(=O)Nc1c(C)n(C)n(-c2ccccc2)c1=O` (configuration not stated), the activation is inactive: 0.457%. The result for `O=C(OCCCN1CCCC1)C(O)(c1ccccc1)C1CCCCC1` (configuration not stated) reads inactive: 1.11%. As to `CCOC(=O)c1ccc(NP(C)(=O)Oc2ccc(OC)cc2)cc1` (configuration not stated), the activation was inactive: 0.764%. Take `O=[N+]([O-])c1cc([N+](=O)[O-])c(O)c([N+](=O)[O-])c1.c1ccc(Oc2ccncc2)cc1`: the activation was inactive: 1.71%. Consider `CP(=O)(Nc1ccccn1)Oc1ccc(Cl)cc1` (configuration not stated), for which the activation is inactive: -0.142%.

As to `CP(=O)(Nc1ccc(SC(F)(F)F)cc1)Oc1ccc(Cl)cc1` (configuration not stated), the activation is inactive: 9.94%. The result for `CP(=O)(Oc1ccccc1)OC(c1ccccc1)C(F)(F)F` (configuration not stated) reads inactive: 0.341%; that for `CP(=O)(NC(=O)Nc1ccccc1)Oc1ccccc1` (configuration not stated), inactive: -2.47%. The result for `CCc1ccc(OP(C)(=O)N2CCN(c3ccc([N+](=O)[O-])cc3)CC2)cc1` (configuration not stated) reads inactive: -10.7%; that for `Cc1cc(C)cc(OP(C)(=O)Nc2ccc(SC(F)(F)F)cc2)c1` (configuration not stated), inactive: -4.19%.

For `COc1ccccc1OP(C)(=O)Nc1ccccc1` (configuration not stated), the activation is inactive: 0.66%. The result for `CP(=O)(Nc1ccccc1Br)Oc1ccccc1` (configuration not stated) reads inactive: -3.49%; that for `CCOC(=O)c1ccc(NP(C)(=O)Oc2ccccc2)cc1` (configuration not stated), inactive: -4.71%. The result for `Cc1ccc(NP(C)(=O)Oc2ccccc2)c(C)c1` (configuration not stated) reads inactive: 2.16%.
